Screens (PubChem BioAssay)
PGC1a acetyl inh: inhibitors of PGC1a acetylation signal, primary screen, cell-based, U2OS, AlphaScreen, inhibitor mode; AlphaScreen anti-acetyl-lysine; with virally co-expressed GCN5 acetyltransferase; inhibition, % at 15.6 µM; 350,000 tested, 0.17% active; AID 651687, 2012;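 active means every replicate shows inhibition of at least 40%; inconclusive means mean inhibition at least 40% but some replicate below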;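 further: 0% = neutral control wells and 100% = positive control wells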
miR122 inh: miR-122 Renilla sensor signal increase in Huh7, primary screen, miR-122 inhibitor project, cell-based, single point, plate reader | Huh7 miR-122 Renilla luciferase sensor, 48 h; neutral wells = 0, positive control = 100 | activation (reporter increase), % at 12.5 µM | 340,000 tested, 0.3% active | AID 602342, 2012;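 active means mean replicate activation score at least 90 and every replicate individually at or above 90; inconclusive means only one of the two criteria met; inactive means neither criterion met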;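 further: higher luciferase means less miR-122 activity so hits act as miR-122 inhibitors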
UUG fidelity: yeast start codon fidelity modulation; AID 602363; activity score, % at 18.7 µM; S. cerevisiae UUG-firefly luciferase reporter, luminescence/redox ratio; 0.13% of 350,000 active;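 active means replicate mean at a twofold rise or more, about +100% in these data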;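 further: firefly luciferase made from a UUG start codon reports start codon fidelity; reporter light over untreated wells divided by growth signal over untreated wells; some hits fall short of that in this replicate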
MITF TRPM1 inh: inhibitors of MITF-dependent TRPM1 promoter reporter, primary screen, cell-based, SK-MEL-5, single point, luciferase; inhibition, % at 12.5 µM; 330,000 tested, 0.83% active; SK-MEL-5 TRPM1 promoter luciferase, 24 h;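 active means mean inhibition across replicates of 60% or more, whatever share of single replicates reaches that level; inconclusive means some that reach 60%, reason not given; inactive means mean inhibition across replicates below 60%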
MITF act: activators of MITF-driven TRPM1 promoter reporter, primary screen, cell-based, SK-MEL-5, luciferase, single point | SK-MEL-5 TRPM1-promoter luciferase, 24 h; % of positive control, neutral wells = 0 | activation, % at 12.5 µM | 300,000 tested, 0.75% active | AID 588334, 2011;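 active means mean activation of at least 80% with every replicate also reaching 80%; inconclusive means mean reaches 80% but some replicate falls short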;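 further: 0% = neutral control wells and 100% = parthenolide positive control wells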
Wnt act: Wnt/beta-catenin pathway activators, primary screen, cell-based, plate reader, single point; activation, % at 9.35 µM; 300,000 tested, 1.2% active; Wnt/beta-catenin reporter cell assay, activator; in the data active means activation above about 30%, passing the limit was not always enough; inconclusive means no clear call, values can overlap the other calls;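 further: 0% = neutral control wells and 100% = positive control wells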
miR-27b select: miR-27b levels after miR-122 inhibitor treatment, dose response, selectivity assay for miR-122 inhibitor project, cell-based, Huh7, RT-qPCR, dry powder. shares compounds with miR122 inh. Huh7 miR-27b levels, qRT-PCR, 48 h. relative miR-27b level (unnormalised ratio), ratio at 35 µM. 35 tested, under 10 active;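 active means compounds lowering miR-27b whose fitted half-maximal dose is at most twice their top tested dose; inconclusive means flat curve with moderate drop, or poor fit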
Active calls of the source: *; ? = inconclusive; / = no result; [ ] = remark or other dose. An excerpt weighted towards active compounds, which were near 2.1% of everything screened.

| # | Compound | MITF TRPM1 inh | PGC1a acetyl inh | UUG fidelity | miR122 inh | Wnt act | miR-27b select | MITF act |
| --- | --- | --- | --- | --- | --- | --- | --- | --- |
| 1 | Cn1cccc1C(=O)OCC(=O)Nc1ccc2c(c1)OCO2 | -7 | 2 | / | / | 7 | / | 1 |
| 2 | Cn1cccc1C(=O)OCc1cc(Cl)cc2c1OCOC2 | -118 | -7 | 4 | 9 | 73* | / | 69 |
| 3 | CCOc1ccc(N2C(=O)Nc3ccccc3C2(O)C(=O)NCc2ccc3c(c2)OCO3)cc1 (stereo unspecified) | -1 | / | -19 | 171* | 2 | / | / |
| 4 | CCOc1ccc(N2C(=O)Nc3ccccc3C2(O)C(=O)NCc2ccc(C)cc2)cc1 (stereo unspecified) | 3 | / | / | / | -1 | / | -2 |
| 5 | CCC(=O)Nc1sc2c(c1C(N)=O)CCN(Cc1ccccc1)C2 | / | / | -1 | 1 | 39* | / | / |
| 6 | NC(=O)c1c(NC(=O)c2ccccc2)sc2c1CCN(Cc1ccccc1)C2 | -4 | 3 | -10 | -1 | 8 | / | 4 |
| 7 | CCN1CCc2c(sc(NC(=O)C3COc4ccccc4O3)c2C(N)=O)C1 (stereo unspecified) | -83 | / | -11 | 1 | 12 | / | 86* |
| 8 | CN1CCc2c(sc(NC(=O)C3COc4ccccc4O3)c2C(N)=O)C1 (stereo unspecified) | -25 | 1 | -8 | / | 4 | / | 25 |
| 9 | C[C@@H]1CN([C@@H](C)CO)C(=O)c2cc(N(C)C)ccc2O[C@@H](C)CCCCO[C@H]1CN(C)S(=O)(=O)c1ccccc1 | / | -3 | / | 2[16.7 µM] | / | / | / |
| 10 | Cc1cc(C)cc(NS(=O)(=O)c2ccc(-c3cnc(C4CC4)o3)cc2)c1 | 41 | -15 | 2 | 375* | -9 | / | -37 |
| 11 | Cc1ccc(C)c(NS(=O)(=O)c2ccc(-c3cnc(C4CC4)o3)cc2)c1 | 51 | / | -15 | / | -10 | / | -51 |
| 12 | CC(=O)Nc1ccc(NS(=O)(=O)c2ccc(-c3cnc(C4CC4)o3)cc2)cc1 | 10 | -7 | -1 | -5 | -3 | / | -13 |
| 13 | O=S(=O)(Nc1ccccc1)c1ccc(-c2cnc(C3CC3)o2)cc1 | 26 | -7 | -16 | 159* | -1 | / | -27 |
| 14 | COc1ccccc1NS(=O)(=O)c1cc(-c2cnc(C3CC3)o2)ccc1C | 9 | / | -4 | / | -1 | / | ? |
| 15 | COc1ccc(NS(=O)(=O)c2cc(-c3cnc(C4CC4)o3)ccc2C)cc1 | 3 | / | -12 | 293* | -3 | / | -3 |
| 16 | COCc1cn(CC[C@H]2CC[C@H](NC(=O)Nc3ccccc3)[C@H](CO)O2)nn1 | / | 2 | -14 | / | / | / | / |
| 17 | COc1ccc(S(=O)(=O)N(C)C[C@H]2OCCCC[C@@H](C)Oc3ccc(NC(=O)Nc4ccc5c(c4)OCO5)cc3C(=O)N([C@@H](C)CO)C[C@H]2C)cc1 | / | -10 | -8 | -6[16.7 µM] | / | / | / |
| 18 | C[C@H]1CN([C@@H](C)CO)C(=O)c2ccccc2-c2ccccc2CO[C@H]1CN(C)CC1CC1 | / | 4 | / | / | / | / | / |
| 19 | COc1ccc(S(=O)(=O)NCCN2CCOCC2)c2ccccc12 | -4 | -5 | -9 | ? | / | 1 | 6 |
| 20 | C[C@H]1CN([C@@H](C)CO)C(=O)c2cc(NC(=O)Cc3cn(C)c4ccccc34)ccc2O[C@@H]1CN(C)S(=O)(=O)c1cccs1 | / | -13 | -9 | -8[16.7 µM] | / | / | / |
| 21 | Cc1ccc(C)c(S(=O)(=O)Nc2ccc(O)cc2)c1 | 9 | 11 | 6 | 46 | / | / | / |
| 22 | Cc1ccc(C)c(S(=O)(=O)Nc2ccc(-n3cnnn3)cc2)c1 | -14 | -18 | -20 | 183* | / | 0.77 | 12 |
| 23 | Cc1ccc(C(C)C)cc1S(=O)(=O)Nc1cccnc1 | 14 | 5 | -9 | 380* | -2 | 0.78 | / |
| 24 | Cc1ccc(C(=O)C2Oc3ccccc3C3CC(c4ccc(C)cc4)=NN23)cc1 (stereo unspecified) | 8 | -3 | -20 | 152* | -1 | 0.76 | -13 |
| 25 | Cc1ccc(S(=O)(=O)N[C@H]2CC[C@H](CCNC(=O)C3CCC3)O[C@@H]2CO)cc1 | / | -8 | 5 | / | / | / | / |
| 26 | Cc1cc(C)c(S(=O)(=O)NC(C)C)c(C)c1-n1cnnn1 | 5 | 8 | -9 | 91* | -1 | 1.1 | -4 |
| 27 | Cc1cc(C)c(S(=O)(=O)NCCOc2ccccc2)c(C)c1-n1cnnn1 | -7 | 6 | -9 | -8 | 0 | / | 6 |
| 28 | Cc1noc(C)c1S(=O)(=O)N(C)C[C@@H]1OCCCC[C@H](C)Oc2ccc(NS(C)(=O)=O)cc2C(=O)N([C@H](C)CO)C[C@@H]1C | / | 3 | -9 | -4[16.7 µM] | / | / | / |
| 29 | O=S(=O)(c1ccc2c(c1)CCN2)N1CCOCC1 | 7 | / | -16 | / | -3 | / | -5 |
| 30 | O=S(=O)(c1ccc2c(c1)CCCN2)N1CCC[C@@H]2CCCC[C@H]21 | / | / | / | / | / | 1.5 | / |

Compounds listed so far containing an aryl methoxy group:
| # | Compound | MITF TRPM1 inh | PGC1a acetyl inh | UUG fidelity | miR122 inh | Wnt act | miR-27b select | MITF act |
| --- | --- | --- | --- | --- | --- | --- | --- | --- |
| 14 | COc1ccccc1NS(=O)(=O)c1cc(-c2cnc(C3CC3)o2)ccc1C | 9 | / | -4 | / | -1 | / | ? |
| 15 | COc1ccc(NS(=O)(=O)c2cc(-c3cnc(C4CC4)o3)ccc2C)cc1 | 3 | / | -12 | 293* | -3 | / | -3 |
| 17 | COc1ccc(S(=O)(=O)N(C)C[C@H]2OCCCC[C@@H](C)Oc3ccc(NC(=O)Nc4ccc5c(c4)OCO5)cc3C(=O)N([C@@H](C)CO)C[C@H]2C)cc1 | / | -10 | -8 | -6[16.7 µM] | / | / | / |
| 19 | COc1ccc(S(=O)(=O)NCCN2CCOCC2)c2ccccc12 | -4 | -5 | -9 | ? | / | 1 | 6 |

Other entries follow.
| # | Compound | MITF TRPM1 inh | PGC1a acetyl inh | UUG fidelity | miR122 inh | Wnt act | miR-27b select | MITF act |
| --- | --- | --- | --- | --- | --- | --- | --- | --- |
| 31 | Cc1noc(C)c1NC(=O)NCC[C@H]1CC[C@@H](NC(=O)Nc2cccc(F)c2)[C@H](CO)O1 | / | 7 | 6 | / | / | / | / |
| 32 | COC(=O)c1cc(S(=O)(=O)Nc2cc(OC)cc(OC)c2)cn1C | / | -1 | -11 | 153* | -3 | 0.97 | / |
| 33 | O=C(Nc1ccc2ccccc2c1)c1ccc(Cl)cc1Cl | -58 | / | -7 | / | 39* | 1.5 | 70 |
| 34 | O=C(Nc1ccc2ccccc2c1)c1cc(F)c(F)cc1Cl | -128 | 10 | 9 | 1 | 15 | / | / |
| 35 | COCC(=O)Nc1ccc2c(c1)C(=O)N(C)C[C@H](OC)[C@@H](C)CN(C(=O)CC1CC1)[C@@H](C)CO2 | / | 3 | 2 | 22[16.7 µM] | / | / | / |
| 36 | CCCN(C)C[C@H]1OCCCC[C@H](C)Oc2ccc(NS(=O)(=O)c3c(C)noc3C)cc2C(=O)N([C@@H](C)CO)C[C@@H]1C | / | 14 | 11 | 4[16.7 µM] | / | / | / |
| 37 | Cc1cc(S(=O)(=O)NC2CCCCC2)c(C)s1 | -4 | -12 | -13 | 260* | / | 1.1 | / |
| 38 | COc1cc(S(=O)(=O)NC2CCCC2)c(OC)cc1C | -2 | 1 | -17 | ? | -3 | / | 2 |
| 39 | C[C@H](CO)N1C[C@H](C)[C@H](CN(C)Cc2ccccc2)Oc2c(NS(=O)(=O)c3cn(C)cn3)cccc2C1=O | / | / | -15 | 3[16.7 µM] | / | / | / |
| 40 | COc1ccc(S(=O)(=O)Nc2ccc(OC(F)F)cc2)c2cccnc12 | / | / | / | / | / | 0.93 | / |
| 41 | COc1ccc(S(=O)(=O)Nc2cccc(C)c2C)c2cccnc12 | 16 | / | 2 | / | -1 | / | -14 |
| 42 | S=C(Nc1ccc(Cl)cc1Cl)NC1CCCCC1 | -106 | -13 | -11 | 133* | / | 1.1 | 107* |
| 43 | CCN(CC)C(=O)CN(c1cc2c(cc1OC)oc1ccccc12)S(=O)(=O)c1ccccc1 | 1 | -3 | -2 | 100* | / | 0.36 | 1 |
